From paper PMC12084609, “Structural insights into small-molecule agonist recognition and activation of complement receptor C3aR” (The EMBO Journal, 2025)

Target: T1, Full-length human C3aR (residues 1–482) (human, UniProt Q16581 1-482)
T1 construct: C3a anaphylatoxin chemotactic receptor (C3aR), human, residues 1–482; also called C3a receptor; wild-type C3aR; source: Sf9 insect cells (baculovirus), purified (Ni-NTA, anti-FLAG M1 resin) in LMNG/CHS; not shown: eGFP, C-terminal, cleaved; His6, C-terminal, cleaved
T1 sequence (looked up): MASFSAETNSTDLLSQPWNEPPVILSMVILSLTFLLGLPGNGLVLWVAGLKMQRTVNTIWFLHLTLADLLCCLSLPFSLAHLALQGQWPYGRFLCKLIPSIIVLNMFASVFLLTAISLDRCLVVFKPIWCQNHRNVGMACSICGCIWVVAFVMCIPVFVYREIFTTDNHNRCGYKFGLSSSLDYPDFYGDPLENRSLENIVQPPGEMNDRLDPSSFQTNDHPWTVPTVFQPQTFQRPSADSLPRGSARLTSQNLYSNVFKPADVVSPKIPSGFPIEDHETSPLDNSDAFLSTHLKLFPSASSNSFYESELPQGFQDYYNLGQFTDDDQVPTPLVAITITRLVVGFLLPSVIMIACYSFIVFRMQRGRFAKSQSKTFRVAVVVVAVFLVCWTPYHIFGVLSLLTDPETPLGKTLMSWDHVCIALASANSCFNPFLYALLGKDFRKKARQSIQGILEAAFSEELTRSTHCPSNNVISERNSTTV
Test: cryo-EM structure; JR14a–C3aR–Gi–scFv16 complex: purified C3aR, Gi heterotrimer and scFv16 mixed 1:1.2:1.5 with 10 μM JR14a, overnight at 4 °C; anti-GFP nanobody column, on-column HRV 3C cleavage, SEC in 20 mM HEPES pH 8.0, 150 mM NaCl, 0.002% LMNG, 0.0002% CHS, 10 μM JR14a
Settings: both partners purified

binding result: binds
B1: human Gαi1 (natural protein)
chain: MGCTLSAEDKAAVERSKMIDRNLREDGEKAAREVKLLLLGAGESGKSTIVKQMKIIHEAGYSEEECKQYKAVVYSNTIQSIIAIIRAMGRLKIDFGDSARADDARQLFVLAGAAEEGFMTAELAGVIKRLWKDSGVQACFNRSREYQLNDSAAYYLNDLDRIAQPNYIPTQQDVLRTRVKTTGIVETHFTFKDLHFKMFDVGGQRSERKKWIHCFEGVTAIIFCVALSDYDLVLAEDEEMNRMHESMKLFDSICNNKWFTDTSIILFLNKKDLFEEKIKKSPLTICYPEYAGSNTYEEAAAYIQCQFEDLNKRKDTKEIYTHFTCATDTKNVQFVFDAVTDVIIKNNLKDCGLF
notes: also called Gi1; source: Trichoplusia ni (Hi5) insect cells, co-expressed with His6-Gβ1 and Gγ2, purified as the heterotrimer (Ni-NTA, HiTrap Q)
